Tests used:
[1] = tested on: RB phosphorylation (Ser780) in KM12 cells; details: for concentration causing loss/reduction of RB phosphorylation (Ser780): asynchronous KM12, 24 h exposure
[2] = tested on: RB phosphorylation (Ser780, Ser608) in HT29 cells; assay: Western blotting for RB phosphorylation in HT29 cells; details: for concentration causing loss/reduction of RB phosphorylation (Ser780; Ser608): asynchronous HT29, 24 h exposure
[3] = tested on: ERK1/2 phosphorylation in HT29 cells; assay: Western blotting for phospho-ERK1/2 in HT29 cells; type: cell-based, human; details: HT29, 24 h exposure
[4] = tested on: c-FOS protein in HT29 cells; details: HT29, 24 h exposure

Structure (SMILES) | concentration giving a small reduction in phosphorylation at Ser780 ([1]; KM12, 24 h exposure) [µM] | concentration causing loss/reduction of RB phosphorylation (Ser780) [1] [µM] | concentration giving full inhibition of RB phosphorylation at Ser608 and Ser780 ([2]; HT29, 24 h exposure) [µM] | concentration causing loss/reduction of RB phosphorylation (Ser780; Ser608) [2] [µM] | concentration giving an increase in ERK phosphorylation [3] [µM] | concentration giving an increase in c-FOS protein [4] [µM]
CC[C@H](CO)Nc1nc(NCc2ccccc2)c2ncn(C(C)C)c2n1 (racemic) [roscovitine] | 10 | ≥ 20 | ≥ 50 | 20 | – | –
CC[C@H](CO)Nc1nc(NCc2ccccc2)c2ncn(C(C)C)c2n1 [R-roscovitine, 2-(R)-(1-ethyl-2-hydroxyethylamino)-6-benzylamino-9-isopropylpurine] | – | ≥ 20 | – | ≥ 20 | ≥ 50 | ≥ 50

Source: patent US20040186117A1, “Marker” (priority 2001, published 2004)
